From US6962920B2, “Pyrimidine derivatives and methods of making and using these derivatives” (Duquesne University of the Holy Ghost, priority 1992, dated 2005)

Sequences of proteins named here, by UniProt entry; tags and fusion partners are left off.
UniProt Q920D2, whole entry: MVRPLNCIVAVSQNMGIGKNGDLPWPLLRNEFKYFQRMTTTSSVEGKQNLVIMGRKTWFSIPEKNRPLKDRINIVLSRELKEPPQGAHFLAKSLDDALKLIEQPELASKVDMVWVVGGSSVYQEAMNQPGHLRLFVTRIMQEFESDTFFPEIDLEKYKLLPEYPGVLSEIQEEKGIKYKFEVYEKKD
UniProt P00469, whole entry: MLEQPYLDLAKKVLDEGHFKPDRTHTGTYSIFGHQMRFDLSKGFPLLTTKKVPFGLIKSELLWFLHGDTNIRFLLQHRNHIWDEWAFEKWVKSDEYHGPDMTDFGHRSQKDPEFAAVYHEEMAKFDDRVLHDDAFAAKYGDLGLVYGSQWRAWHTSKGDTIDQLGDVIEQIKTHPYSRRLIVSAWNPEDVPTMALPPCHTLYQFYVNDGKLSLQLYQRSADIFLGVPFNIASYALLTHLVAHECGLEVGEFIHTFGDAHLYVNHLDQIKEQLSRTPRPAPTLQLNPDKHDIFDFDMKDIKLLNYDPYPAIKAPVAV
UniProt P0A884, whole entry: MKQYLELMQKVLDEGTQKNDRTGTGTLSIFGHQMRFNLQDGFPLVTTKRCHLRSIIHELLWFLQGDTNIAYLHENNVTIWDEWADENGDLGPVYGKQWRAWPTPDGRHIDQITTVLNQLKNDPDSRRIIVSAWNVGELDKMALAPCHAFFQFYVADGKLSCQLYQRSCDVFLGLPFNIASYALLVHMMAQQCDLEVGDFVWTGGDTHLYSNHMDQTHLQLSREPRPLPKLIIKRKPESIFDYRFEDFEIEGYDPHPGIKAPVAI

Tests used:
SK-MEL-5 = assay: NCI in vitro anti-cancer activity, Melanoma; format: cell-based
DU-145 = assay: NCI in vitro anti-cancer activity, Prostate Cancer
PC-3 = assay: NCI in vitro anti-cancer activity, Prostate Cancer
HCC-2998 = assay: NCI in vitro anti-cancer activity, Colon Cancer
SW-620 = assay: NCI in vitro anti-cancer activity, Colon Cancer
COLO 205 = assay: NCI in vitro anti-cancer activity, Colon Cancer
HCT-116 = assay: NCI in vitro anti-cancer activity, Colon Cancer
HT29 = assay: NCI in vitro anti-cancer activity, Colon Cancer
KM12 = assay: NCI in vitro anti-cancer activity, Colon Cancer
HCT-15 = assay: NCI in vitro anti-cancer activity, Colon Cancer
SF-268 = assay: NCI in vitro anti-cancer activity, CNS Cancer
SNB-19 = assay: NCI in vitro anti-cancer activity, CNS Cancer
SNB-75 = assay: NCI in vitro anti-cancer activity, CNS Cancer; settings: SNB-75
U251 = assay: NCI in vitro anti-cancer activity, CNS Cancer
SF-539 = assay: NCI in vitro anti-cancer activity, CNS Cancer
SF-295 = assay: NCI in vitro anti-cancer activity, CNS Cancer
SN12C = assay: NCI in vitro anti-cancer activity, Renal Cancer; settings: Table 29, Renal Cancer
ACHN = assay: NCI in vitro anti-cancer activity, Renal Cancer
CAKI-1 = assay: NCI in vitro anti-cancer activity, Renal Cancer
TK-10 = assay: NCI in vitro anti-cancer activity, Renal Cancer
786-0 = assay: NCI in vitro anti-cancer activity, Renal Cancer
RXF 393 = assay: NCI in vitro anti-cancer activity, Renal Cancer
UO-31 = assay: NCI in vitro anti-cancer activity, Renal Cancer
RL DHFR = RL DHFR (Rattus norvegicus, UniProt Q920D2); assay: Inhibition of DHFR from rat liver; format: biochemical
M14 = assay: NCI in vitro anti-cancer activity, Melanoma
UACC-62 = assay: NCI in vitro anti-cancer activity, Melanoma
SK-MEL-2 = assay: NCI in vitro anti-cancer activity, Melanoma
LOX IMVI = assay: NCI in vitro anti-cancer activity, Melanoma
MALME-3M = assay: NCI in vitro anti-cancer activity, Melanoma
SK-MEL-28 = assay: NCI in vitro anti-cancer activity, Melanoma
UACC-257 = assay: NCI in vitro anti-cancer activity, Melanoma
NCI-H23 = assay: NCI in vitro anti-cancer activity, Non-Small Cell Lung Cancer
HOP-92 = assay: as above
NCI-H522 = assay: as above
NCI-H226 = assay: as above
EKVX = assay: as above
A549/ATCC = assay: as above
NCI-H460 = assay: as above; format: cell-based
MCF7 = assay: NCI in vitro anti-cancer activity, Breast Cancer
MDA-N = assay: NCI in vitro anti-cancer activity, Breast Cancer
HS 578T = assay: NCI in vitro anti-cancer activity, Breast Cancer
BT-549 = assay: NCI in vitro anti-cancer activity, Breast Cancer; settings: Table 29, Breast Cancer
T-47D = assay: NCI in vitro anti-cancer activity, Breast Cancer; settings: Table 29, Breast Cancer
MDA-MB-231/ATCC = assay: NCI in vitro anti-cancer activity, Breast Cancer
MDA-MB-435 = assay: NCI in vitro anti-cancer activity, Breast Cancer
HL-60 (TB) = assay: NCI in vitro anti-cancer activity, Leukemia
CCRF-CEM = assay: NCI in vitro anti-cancer activity, Leukemia
RPMI-8226 = assay: NCI in vitro anti-cancer activity, Leukemia
MOLT-4 = assay: NCI in vitro anti-cancer activity, Leukemia
SR = assay: NCI in vitro anti-cancer activity, Leukemia
K-562 = assay: NCI in vitro anti-cancer activity
NCI/ADR-RES = assay: NCI in vitro anti-cancer activity, breast cancer
SK-OV-3 = assay: NCI in vitro anti-cancer activity, Ovarian Cancer
OVCAR-4 = assay: NCI in vitro anti-cancer activity, Ovarian Cancer
OVCAR-5 = assay: NCI in vitro anti-cancer activity, Ovarian Cancer
OVCAR-8 = assay: NCI in vitro anti-cancer activity, Ovarian Cancer
OVCAR-3 = assay: NCI in vitro anti-cancer activity, Ovarian Cancer
IGROV1 = assay: NCI in vitro anti-cancer activity, Ovarian Cancer
A498 = assay: NCI in vitro anti-cancer activity, renal cancer; settings: Table 29, Renal Cancer
HOP-62 = assay: NCI in vitro anti-cancer activity, Non-Small Cell Lung Cancer; settings: Table 31, Non-Small Cell Lung Cancer
L. casei TS = L. casei TS (Lacticaseibacillus casei, UniProt P00469); assay: Inhibition of thymidylate synthase (TS), L. casei; format: biochemical, Lactobacillus casei; settings: Table 13; at the concentration given
FaDu = assay: Growth inhibition of FaDu human squamous carcinoma cell line; format: cell-based; settings: read-out: Growth inhibition EC50, FaDu; Table 15; continuous (120 hours) exposure
[1] = biological target: E-coli thymidylate synthase (ecTS) (Escherichia coli, UniProt P0A884); assay: Inhibition of E. coli thymidylate synthase; format: biochemical; settings: Table 13; at the concentration given
[2] = Table 29, Non-Small Cell Lung Cancer
[3] = Table 31, Non-Small Cell Lung Cancer

## Cc1nc(N)nc2c1c(CCc1ccccc1)cn2Cc1ccccc1
SK-MEL-5; Table 29, Melanoma
  GI50: > 100 µM
DU-145; Table 29, Prostate Cancer
  GI50: > 100 µM
PC-3; Table 29, Prostate Cancer
  GI50: 38.1 µM
HCC-2998; Table 29, Colon Cancer
  GI50: > 100 µM
SW-620; Table 29, Colon Cancer
  GI50: 41.6 µM
COLO 205; Table 29, Colon Cancer
  GI50: > 100 µM
HCT-116; Table 29, Colon Cancer
  GI50: > 100 µM
HT29; Table 29, Colon Cancer
  GI50: > 100 µM
KM12; Table 29, Colon Cancer
  GI50: > 100 µM
HCT-15; Table 29, Colon Cancer
  GI50: 25.2 µM
SF-268; Table 29, CNS Cancer
  GI50: > 100 µM
SNB-19; Table 29, CNS Cancer
  GI50: > 100 µM
SNB-75; Table 29, CNS Cancer
  GI50: > 100 µM
U251; Table 29, CNS Cancer
  GI50: 12.2 µM
SF-539; Table 29, CNS Cancer
  GI50: > 100 µM
SF-295; Table 29, CNS Cancer
  GI50: > 100 µM
SN12C
  GI50: > 100 µM
ACHN; Table 29, Renal Cancer
  GI50: 44 µM
CAKI-1; Table 29, Renal Cancer
  GI50: 87.9 µM
TK-10; Table 29, Renal Cancer
  GI50: > 100 µM
786-0; Table 29, Renal Cancer
  GI50: > 100 µM
RXF 393; RXF 393, Renal Cancer
  GI50: very selective
RXF 393; Table 29, Renal Cancer, RXF 393
  GI50: 4.81 µM
UO-31; Table 29, Renal Cancer
  GI50: > 100 µM
RL DHFR; read-out: Inhibitory Concentrations (IC50) RL DHFR, Table 26
  IC50: 97 µM
M14; Table 29, Melanoma
  GI50: > 100 µM
UACC-62; Table 29, Melanoma
  GI50: 79.4 µM
SK-MEL-2; Table 29, Melanoma
  GI50: > 100 µM
LOX IMVI; Table 29, Melanoma
  GI50: > 100 µM
MALME-3M; Table 29, Melanoma
  GI50: > 100 µM
SK-MEL-28; Table 29, Melanoma
  GI50: 39.3 µM
UACC-257; Table 29, Melanoma
  GI50: 31.4 µM
NCI-H23; [2]
  GI50: > 100 µM
HOP-92; [2]
  GI50: 16 µM
NCI-H522; [2]
  GI50: > 100 µM
NCI-H226; [2]
  GI50: > 100 µM
EKVX; [2]
  GI50: 6.45 µM
A549/ATCC; [2]
  GI50: > 100 µM
NCI-H460; [2]
  GI50: > 100 µM
MCF7; Table 29, Breast Cancer
  GI50: 50 µM
MDA-N; Table 29, Breast Cancer
  GI50: > 100 µM
HS 578T; Table 29, Breast Cancer
  GI50: > 100 µM
BT-549
  GI50: > 100 µM
T-47D
  GI50: 0.504 µM
MDA-MB-231/ATCC; Table 29, Breast Cancer
  GI50: 52.2 µM
MDA-MB-435; Table 29, Breast Cancer
  GI50: > 100 µM
HL-60 (TB); Table 29, Leukemia
  GI50: 20.1 µM
CCRF-CEM; CCRF-CEM leukemia cell line
  GI50: very selective
CCRF-CEM; Table 29, Leukemia, CCRF-CEM
  GI50: 4.72 µM
RPMI-8226; Table 29, Leukemia
  GI50: > 100 µM
MOLT-4; Table 29, Leukemia
  GI50: > 100 µM
SR; Table 29, Leukemia
  GI50: > 100 µM
K-562; Table 29, Leukemia
  GI50: > 100 µM
NCI/ADR-RES; NCI/ADR-RES breast cancer cell line
  GI50: very selective
NCI/ADR-RES; Table 29, Breast Cancer, NCI/ADRRES
  GI50: 2.23 µM
SK-OV-3; Table 29, Ovarian Cancer
  GI50: > 100 µM
OVCAR-4; Table 29, Ovarian Cancer
  GI50: 56.3 µM
OVCAR-5; Table 29, Ovarian Cancer
  GI50: > 100 µM
OVCAR-8; Table 29, Ovarian Cancer
  GI50: > 100 µM
OVCAR-3; Table 29, Ovarian Cancer
  GI50: > 100 µM
IGROV1; Table 29, Ovarian Cancer
  GI50: > 100 µM
A498
  GI50: 14.3 µM

## Nc1nc(N)c2c(CNc3cccc4cc5ccccc5cc34)coc2n1
SK-MEL-5; Table 31, Melanoma
  GI50: 20.5 µM
DU-145; Table 31, Prostate Cancer
  GI50: 14.7 µM
PC-3; Table 31, Prostate Cancer
  GI50: 15.1 µM
HCC-2998; Table 31, Colon Cancer
  GI50: 19.1 µM
SW-620; Table 31, Colon Cancer
  GI50: 25.6 µM
COLO 205; Table 31, Colon Cancer
  GI50: 30.2 µM
HCT-116; Table 31, Colon Cancer
  GI50: 16.8 µM
HT29; Table 31, Colon Cancer
  GI50: 24.6 µM
KM12; Table 31, Colon Cancer
  GI50: 26.5 µM
HCT-15; Table 31, Colon Cancer
  GI50: 30.5 µM
SF-268; Table 31, CNS Cancer
  GI50: 14.9 µM
SNB-19; Table 31, CNS Cancer
  GI50: 13.1 µM
SNB-75; Table 31, CNS Cancer
  GI50: 3.61 µM
U251; Table 31, CNS Cancer
  GI50: 14.5 µM
SF-539; Table 31, CNS Cancer
  GI50: 22.3 µM
SF-295; Table 31, CNS Cancer
  GI50: 19 µM
ACHN; Table 31, Renal Cancer
  GI50: 18.1 µM
CAKI-1; Table 31, Renal Cancer
  GI50: 17.8 µM
TK-10; Table 31, Renal Cancer
  GI50: 19.5 µM
786-0; Table 31, Renal Cancer
  GI50: 10.6 µM
RXF 393; Table 31, Renal Cancer, RXF 393
  GI50: 2.98 µM
UO-31; Table 31, Renal Cancer
  GI50: 23.3 µM
RL DHFR; @ 51 μM
  % inhibition RL DHFR: 37% @ 51 μM
M14; Table 31, Melanoma
  GI50: 25.9 µM
UACC-62; Table 31, Melanoma
  GI50: 16.7 µM
SK-MEL-2; Table 31, Melanoma
  GI50: 29.9 µM
LOX IMVI; Table 31, Melanoma
  GI50: 16.6 µM
MALME-3M; Table 31, Melanoma
  GI50: 6.74 µM
SK-MEL-28; Table 31, Melanoma
  GI50: 28.1 µM
UACC-257; Table 31, Melanoma
  GI50: 18.3 µM
NCI-H23; [3]
  GI50: 17.5 µM
HOP-92; [3]
  GI50: 14.6 µM
NCI-H522; [3]
  GI50: 14.7 µM
NCI-H226; [3]
  GI50: 15.3 µM
HOP-62
  GI50: 12.4 µM
EKVX; [3]
  GI50: 14.5 µM
A549/ATCC; [3]
  GI50: 15.2 µM
NCI-H460; [3]
  GI50: 13.7 µM
MCF7; Table 31, Breast Cancer
  GI50: 12 µM
MDA-N; Table 31, Breast Cancer
  GI50: 28.8 µM
HS 578T; Table 31, Breast Cancer
  GI50: 12.8 µM
MDA-MB-231/ATCC; Table 31, Breast Cancer
  GI50: 17.9 µM
MDA-MB-435; Table 31, Breast Cancer
  GI50: 19.1 µM
HL-60 (TB); Table 31, Leukemia
  GI50: 15.9 µM
CCRF-CEM; Table 31, Leukemia, CCRF-CEM
  GI50: 16.6 µM
RPMI-8226; Table 31, Leukemia
  GI50: 29.8 µM
MOLT-4; Table 31, Leukemia
  GI50: 20.6 µM
SR; Table 31, Leukemia
  GI50: 8.36 µM
K-562; Table 31, Leukemia
  GI50: 33.8 µM
NCI/ADR-RES; Table 31, Breast Cancer, NCI/ADRRES
  GI50: 22.3 µM
SK-OV-3; Table 31, Ovarian Cancer
  GI50: 17.2 µM
OVCAR-4; Table 31, Ovarian Cancer
  GI50: 11.4 µM
OVCAR-5; Table 31, Ovarian Cancer
  GI50: 31.1 µM
OVCAR-8; Table 31, Ovarian Cancer
  GI50: 14.8 µM
OVCAR-3; Table 31, Ovarian Cancer
  GI50: 16.5 µM
IGROV1; Table 31, Ovarian Cancer
  GI50: 17.5 µM

## COc1ccc(Sc2c(C)[nH]c3nc(N)[nH]c(=O)c23)cc1OC
L. casei TS
  % in parentheses after the > value, L. Casei TS: 33%
FaDu
  EC50: > 10 µM
[1]
  % in parentheses after the > value, E. Coli TS: 30%
